Drawing on patent publication US20230122249A1, “1H-PYRAZOLO[4,3-d]PYRIMIDINE COMPOUNDS AS TOLL-LIKE RECEPTOR 7 (TLR7) AGONISTS” (BRISTOL-MYERS SQUIBB COMPANY, priority 2020, published 2023), this text covers EC50 for one compound.

Chains of the proteins cited; added tags and fusions are not shown. Residues count along the entry.
UniProt Q9NYK1, 27-1049 limits assumed: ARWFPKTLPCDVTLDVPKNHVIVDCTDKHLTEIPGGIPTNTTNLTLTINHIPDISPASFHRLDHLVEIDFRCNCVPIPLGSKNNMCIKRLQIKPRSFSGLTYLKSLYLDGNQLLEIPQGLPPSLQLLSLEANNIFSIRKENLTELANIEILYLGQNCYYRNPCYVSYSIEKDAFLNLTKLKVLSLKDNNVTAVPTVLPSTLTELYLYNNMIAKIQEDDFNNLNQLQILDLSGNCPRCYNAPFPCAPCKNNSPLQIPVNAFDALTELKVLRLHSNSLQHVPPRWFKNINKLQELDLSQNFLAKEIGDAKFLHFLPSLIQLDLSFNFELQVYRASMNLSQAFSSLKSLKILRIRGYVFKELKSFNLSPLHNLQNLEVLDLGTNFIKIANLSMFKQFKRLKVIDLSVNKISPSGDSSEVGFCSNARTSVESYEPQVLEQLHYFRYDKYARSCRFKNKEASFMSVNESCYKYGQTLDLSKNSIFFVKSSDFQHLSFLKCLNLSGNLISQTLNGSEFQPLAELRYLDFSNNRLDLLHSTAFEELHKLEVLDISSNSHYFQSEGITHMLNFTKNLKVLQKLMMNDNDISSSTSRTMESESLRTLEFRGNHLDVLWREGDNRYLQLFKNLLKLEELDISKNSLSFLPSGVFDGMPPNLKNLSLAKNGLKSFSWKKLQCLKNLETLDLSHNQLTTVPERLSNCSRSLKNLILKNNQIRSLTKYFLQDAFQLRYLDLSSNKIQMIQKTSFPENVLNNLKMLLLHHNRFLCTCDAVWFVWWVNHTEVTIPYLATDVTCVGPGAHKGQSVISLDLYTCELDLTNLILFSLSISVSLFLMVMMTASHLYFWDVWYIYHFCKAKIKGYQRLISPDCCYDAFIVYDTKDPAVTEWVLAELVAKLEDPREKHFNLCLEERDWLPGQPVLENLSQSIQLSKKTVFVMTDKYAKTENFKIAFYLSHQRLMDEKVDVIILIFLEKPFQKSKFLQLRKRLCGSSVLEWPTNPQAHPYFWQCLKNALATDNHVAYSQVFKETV

In one assay the target is human TLR7 (Homo sapiens, UniProt Q9NYK1). Nature of the assay: Human TLR7 agonist activity (hTLR7 reporter) assay in HEK-Blue TLR7 cells, SEAP readout. To be noted: read-out: hTLR7 Reporter EC50, 18 h treatment, average where assay repeated. As for the experimental part: This procedure describes a method for assaying human TLR7 (hTLR7) agonist activity of the compounds disclosed in this specification.
HEK-Blue™ TLR7 cells were added to each well of a 384-well tissue-culture plate (15,000 cells per well) and incubated 16-18 h at 37° C., 5% CO2. Compounds (100 nl) were dispensed into wells containing the HEK-Blue™ TLR cells and the treated cells were incubated at 37° C., 5% CO2. After 18 h treatment ten microliters of freshly-prepared Quanti-Blue™ reagent (Invivogen) was added to each well, incubated for 30 min (37° C., 5% CO2) and SEAP levels measured using an Envision plate reader (OD=620 nm). The half maximal effective concentration values (EC50; compound concentration which induced a response halfway between the assay baseline and maximum) were calculated.

For assay [1], the system named is CD69 in human whole blood. Briefly: Induction of CD69 in human whole blood (hWB). To be noted: read-out: hWB CD69 EC50; heparinized human whole blood, 17 h, CD69 surface staining; 100% set to 1 uM resiquimod; average where assay repeated. As for the experimental part: The induction of Type I interferon (IFN) MX-1 genes and the B-cell activation marker CD69 are downstream events that occur upon activation of the TLR7 pathway. The following is a human whole blood assay that measures their induction in response to a TLR7 agonist.
Heparinized human whole blood was harvested from human subjects and treated with test TLR7 agonist compounds at 1 mM. The blood was diluted with RPMI 1640 media and Echo was used to predot 10 nL per well giving a final concentration of 1 uM (10 nL in 10 uL of blood). After mixing on a shaker for 30 sec, the plates were covered and placed in a 37° C. chamber for o/n=17 hrs. Fixing/lysis buffer was prepared (5×->1×in H2O, warm at 37° C.; Cat# BD 558049) and kept the perm buffer (on ice) for later use.
For surface markers staining (CD69): prepared surface Abs: 0.045 ul hCD14-FITC (ThermoFisher Cat # MHCD1401)+0.6 ul hCD19-ef450 (ThermoFisher Cat #48-0198-42)+1.5 ul hCD69-PE (cat# BD555531)+0.855 ul FACS buffer. […]
Centrifuge at 2000 rpm for 5 minutes aspirate with HCS plate washer, mix on shaker for 30 sec and then wash with 70 uL in dPBS and pelleted 2 xs (2000 rpm for 5 min) and 50 ul wash in FACS buffer pelleted 1 xs(2000 rpm for 5 min). […] Resuspend 20 ul (35 uL total per well) of FACS buffer and cover with foil and place in 4° C. to read the following day. Plates were read on iQuePlus. […]

As for `CCC[C@@H](CCO)Nc1nc(N)nc2cnn(Cc3ncc(C4=CC5(CCN(CC6CC6)CC5)C4)cc3OC)c12`, the concentration giving a half-maximal response (EC50) was found to be 49.8 nM on human TLR7 and 8.4 nM in assay [1].
